Data reported in ChEMBL document CHEMBL1221170, “Sensing with TRP channels” (Nat Chem Biol, 2005).

By UniProt entry, the sequences of proteins in these tests, tags left out.
UniProt O75762, whole entry, looked up: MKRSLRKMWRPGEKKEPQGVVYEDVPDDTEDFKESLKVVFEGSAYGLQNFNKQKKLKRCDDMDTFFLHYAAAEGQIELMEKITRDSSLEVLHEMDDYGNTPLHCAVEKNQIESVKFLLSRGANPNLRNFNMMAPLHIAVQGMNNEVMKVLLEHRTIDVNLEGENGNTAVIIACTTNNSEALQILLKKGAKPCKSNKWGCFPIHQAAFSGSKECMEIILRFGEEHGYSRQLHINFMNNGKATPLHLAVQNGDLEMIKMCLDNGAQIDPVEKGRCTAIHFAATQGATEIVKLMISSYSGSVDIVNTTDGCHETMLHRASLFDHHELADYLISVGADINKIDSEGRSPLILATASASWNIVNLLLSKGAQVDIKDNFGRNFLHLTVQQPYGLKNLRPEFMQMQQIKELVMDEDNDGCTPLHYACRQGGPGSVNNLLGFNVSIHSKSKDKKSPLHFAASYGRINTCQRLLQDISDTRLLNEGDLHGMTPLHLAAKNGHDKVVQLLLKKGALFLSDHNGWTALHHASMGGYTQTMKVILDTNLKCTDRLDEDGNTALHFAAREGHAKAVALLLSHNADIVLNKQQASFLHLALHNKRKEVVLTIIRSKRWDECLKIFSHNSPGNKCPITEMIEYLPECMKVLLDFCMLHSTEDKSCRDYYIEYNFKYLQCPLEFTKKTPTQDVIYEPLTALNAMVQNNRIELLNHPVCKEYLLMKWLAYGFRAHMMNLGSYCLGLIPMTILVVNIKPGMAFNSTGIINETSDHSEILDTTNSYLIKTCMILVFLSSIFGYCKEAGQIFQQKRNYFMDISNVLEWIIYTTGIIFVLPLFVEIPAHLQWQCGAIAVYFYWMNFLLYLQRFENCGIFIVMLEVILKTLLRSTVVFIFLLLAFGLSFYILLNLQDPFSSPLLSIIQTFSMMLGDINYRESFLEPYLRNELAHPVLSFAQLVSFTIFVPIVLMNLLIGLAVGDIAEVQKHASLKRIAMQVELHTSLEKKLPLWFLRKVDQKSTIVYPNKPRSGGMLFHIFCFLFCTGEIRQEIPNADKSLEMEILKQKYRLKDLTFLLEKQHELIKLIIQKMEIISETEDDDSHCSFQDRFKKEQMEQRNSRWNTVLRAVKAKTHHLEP

Target: Transient receptor potential cation channel subfamily A member 1 (Homo sapiens) (UniProt O75762)
Assay: Agonist activity at TRPA1
Format: functional

## C=CCN=C=S
  Activity: 10 µM
